Test results reported in ChEMBL document CHEMBL1772985, “N-(3-fluoro-4-(4-(2-methoxy or 2,3-dichlorophenyl)piperazine-1-yl)butyl)arylcarboxamides as selective dopamine D3 receptor ligands: critical role of the carboxamide linker for D3 receptor selectivity” (J Med Chem, 2011).

The chains behind the UniProt entries cited, without tags or fusion partners.
UniProt P35462, whole entry: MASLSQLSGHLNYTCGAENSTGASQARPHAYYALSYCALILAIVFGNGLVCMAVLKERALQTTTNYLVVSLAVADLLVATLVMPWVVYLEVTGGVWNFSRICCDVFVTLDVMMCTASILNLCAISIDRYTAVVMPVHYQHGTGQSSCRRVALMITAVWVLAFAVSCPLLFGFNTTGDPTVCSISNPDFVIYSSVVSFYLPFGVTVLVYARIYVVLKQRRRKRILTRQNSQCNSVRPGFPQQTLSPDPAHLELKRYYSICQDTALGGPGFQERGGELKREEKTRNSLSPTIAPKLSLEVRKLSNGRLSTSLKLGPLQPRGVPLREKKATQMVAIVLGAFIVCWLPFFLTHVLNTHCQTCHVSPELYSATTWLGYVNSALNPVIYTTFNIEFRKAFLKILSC

Key:
D(3) dopamine receptor [1] = target: T1, D(3) dopamine receptor (Homo sapiens, UniProt P35462); experiment: Antagonist activity at human dopamine D3 receptor expressed in CHOp cells assessed as inhibition of quinpirole-induced mitogenesis; format: functional, cell-based
D(3) dopamine receptor [2] = target: T1, D(3) dopamine receptor; experiment: Antagonist activity at human dopamine D3 receptor expressed in CHO-K1 cells assessed as inhibition of dopamine-induced recruitment of beta-arrestin-2 after 90 mins by beta-galactosidase assay; format: functional, cell-based

SMILES: CCN1CCCC1CNC(=O)c1cc(S(N)(=O)=O)ccc1OC (configuration not stated) [SULPIRIDE]
- IC50 (D(3) dopamine receptor [1]): 66.2 nM
- IC50 (D(3) dopamine receptor [2]): 560 nM
